Where “and” joins values, the source holds several entries; their conditions need not be identical. Equal values may be shown once.
Tests used:
hKv1.3 = hKv1.3 (Homo sapiens, UniProt P22001); assay: cell-based; details: Kv1.3 (IWQ) IC50 (nM, Avg)
[1] = system: IFN-g secretion from T cells in human whole blood; format: cell-based; details: read-out: WB (IFNg) IC50 (nM, Avg)
[2] = system: IL-2 secretion from T cells in human whole blood; format: cell-based; details: read-out: WB (IL-2) IC50 (nM, Avg)

The chains behind the UniProt entries cited, without tags or fusion partners.
UniProt P22001, whole entry: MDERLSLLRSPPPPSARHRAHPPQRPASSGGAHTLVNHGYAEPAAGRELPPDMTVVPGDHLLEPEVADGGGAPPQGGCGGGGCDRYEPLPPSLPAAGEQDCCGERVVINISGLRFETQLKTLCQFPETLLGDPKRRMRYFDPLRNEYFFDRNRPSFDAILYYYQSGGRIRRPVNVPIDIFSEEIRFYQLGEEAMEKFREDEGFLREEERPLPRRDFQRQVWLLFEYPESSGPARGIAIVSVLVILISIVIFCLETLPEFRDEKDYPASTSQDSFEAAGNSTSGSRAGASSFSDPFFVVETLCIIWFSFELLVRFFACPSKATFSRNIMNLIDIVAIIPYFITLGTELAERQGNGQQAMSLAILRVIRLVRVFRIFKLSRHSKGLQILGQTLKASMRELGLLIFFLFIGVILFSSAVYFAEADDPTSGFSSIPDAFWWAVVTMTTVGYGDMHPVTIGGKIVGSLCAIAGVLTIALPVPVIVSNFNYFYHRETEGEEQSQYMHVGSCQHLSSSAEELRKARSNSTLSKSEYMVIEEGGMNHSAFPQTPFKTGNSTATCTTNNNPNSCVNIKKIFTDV

CC[C@H](C)[C@@H]1NC(=O)[C@@H](NC(=O)[C@H](CO)NC(=O)[C@@H](N)CCCNC(=N)N)CSSC[C@@H](C(=O)O)NC(=O)[C@H]([C@@H](C)O)NC(=O)CNC(=O)[C@@H]2CSSC[C@@H]3NC(=O)[C@H](CCC(N)=O)NC(=O)[C@H](Cc4ccccc4)NC(=O)[C@H](C)NC(=O)[C@H]([C@@H](C)O)NC(=O)[C@H](CSSC[C@H](NC(=O)[C@H](Cc4ccccc4)NC(=O)[C@H](CO)NC(=O)[C@H](CC(C)C)NC(=O)[C@H](CCCNC(=N)N)NC(=O)[C@H](Cc4ccc(O)cc4)NC(=O)[C@H](CCCCN)NC(=O)[C@H](CCSC)NC(=O)[C@H](CO)NC(=O)[C@H](Cc4c[nH]cn4)NC(=O)[C@H](CCCCN)NC3=O)C(=O)N[C@@H](CCCNC(=N)N)C(=O)N[C@@H](CCCCN)C(=O)N[C@@H]([C@@H](C)O)C(=O)N2)NC(=O)[C@H](CCCNC(=N)N)NC(=O)[C@H](CO)NC(=O)[C@H](Cc2cccc3ccccc23)NC(=O)[C@@H]2CCCN2C(=O)[C@H]([C@@H](C)CC)NC(=O)[C@H]([C@@H](C)O)NC(=O)[C@H](CC(=O)O)NC1=O [[1-Nal9]ShK]
IC50 (hKv1.3): 0.473 nM
IC50 [1]: 0.666 nM

CC[C@H](C)[C@@H]1NC(=O)[C@@H](NC(=O)[C@H](CO)NC(=O)[C@@H](N)CCCNC(=N)N)CSSC[C@@H](C(=O)O)NC(=O)[C@H]([C@@H](C)O)NC(=O)[C@H](Cc2cccc3ccccc23)NC(=O)[C@@H]2CSSC[C@@H]3NC(=O)[C@H](CCC(N)=O)NC(=O)[C@H](Cc4ccccc4)NC(=O)[C@H](C)NC(=O)[C@H]([C@@H](C)O)NC(=O)[C@H](CSSC[C@H](NC(=O)[C@H](Cc4ccccc4)NC(=O)[C@H](CO)NC(=O)[C@H](CC(C)C)NC(=O)[C@H](CCCNC(=N)N)NC(=O)[C@H](Cc4ccc(O)cc4)NC(=O)[C@H](CCCCN)NC(=O)[C@H](CCSC)NC(=O)[C@H](CO)NC(=O)[C@H](Cc4c[nH]cn4)NC(=O)[C@H](CCCCN)NC3=O)C(=O)N[C@@H](CCCNC(=N)N)C(=O)N[C@@H](CCCCN)C(=O)N[C@@H]([C@@H](C)O)C(=O)N2)NC(=O)[C@H](CCCNC(=N)N)NC(=O)[C@H](CO)NC(=O)[C@H](CCCCN)NC(=O)[C@@H]2CCCN2C(=O)[C@H]([C@@H](C)CC)NC(=O)[C@H]([C@@H](C)O)NC(=O)[C@H](CC(=O)O)NC1=O [[1-Nal33]ShK]
IC50 [2]: 0.439 nM

CC[C@H](C)[C@@H]1NC(=O)[C@@H](NC(=O)[C@H](CO)NC(=O)[C@@H](N)CCCNC(=N)N)CSSC[C@@H](C(=O)O)NC(=O)[C@H]([C@@H](C)O)NC(=O)CNC(=O)[C@@H]2CSSC[C@@H]3NC(=O)[C@H](CCC(N)=O)NC(=O)[C@H](Cc4ccccc4)NC(=O)[C@H](C)NC(=O)[C@H]([C@@H](C)O)NC(=O)[C@H](CSSC[C@H](NC(=O)[C@H](Cc4ccccc4)NC(=O)[C@H](CO)NC(=O)[C@H](CC(C)C)NC(=O)[C@H](CCC(=O)O)NC(=O)[C@H](Cc4ccc(O)cc4)NC(=O)[C@H](CCCCN)NC(=O)[C@H](CCSC)NC(=O)[C@H](CO)NC(=O)[C@H](Cc4c[nH]cn4)NC(=O)[C@H](CCCCN)NC3=O)C(=O)N[C@@H](CCCNC(=N)N)C(=O)N[C@@H](CCCCN)C(=O)N[C@@H]([C@@H](C)O)C(=O)N2)NC(=O)[C@H](CCCNC(=N)N)NC(=O)[C@H](CO)NC(=O)[C@H](CCCCN)NC(=O)[C@@H]2CCCN2C(=O)[C@H]([C@@H](C)CC)NC(=O)[C@H]([C@@H](C)O)NC(=O)[C@H](CC(=O)O)NC1=O [[Glu24]ShK]
IC50 (hKv1.3): 0.26 nM
IC50 [2]: 1.11 nM

CC[C@H](C)[C@@H]1NC(=O)[C@@H](NC(=O)[C@H](CO)NC(=O)[C@@H](N)CCCNC(=N)N)CSSC[C@@H](C(=O)O)NC(=O)[C@H]([C@@H](C)O)NC(=O)CNC(=O)[C@@H]2CSSC[C@@H]3NC(=O)[C@H](CCC(N)=O)NC(=O)[C@H](Cc4ccccc4)NC(=O)[C@H](C)NC(=O)[C@H]([C@@H](C)O)NC(=O)[C@H](CSSC[C@H](NC(=O)[C@H](Cc4ccccc4)NC(=O)[C@H](CO)NC(=O)[C@H](CC(C)C)NC(=O)[C@H](CCCNC(=N)N)NC(=O)[C@H](Cc4ccc(O)cc4)NC(=O)[C@H](CCCCN)NC(=O)[C@H](CCSC)NC(=O)[C@H](CO)NC(=O)[C@H](Cc4c[nH]cn4)NC(=O)[C@H](CCCCN)NC3=O)C(=O)N[C@@H](CCCNC(=N)N)C(=O)N[C@@H](CCCCN)C(=O)N[C@@H]([C@@H](C)O)C(=O)N2)NC(=O)[C@H](CCCNC(=N)N)NC(=O)[C@H](CO)NC(=O)[C@H](CCCCN)NC(=O)[C@H](CCCCN)NC(=O)[C@H]([C@@H](C)CC)NC(=O)[C@H]([C@@H](C)O)NC(=O)[C@H](CC(=O)O)NC1=O [[Lys8]ShK]
IC50 (hKv1.3): 0.083 nM
IC50 [2]: 0.154 nM

CC[C@H](C)[C@@H]1NC(=O)[C@@H](NC(=O)[C@H](CO)NC(=O)[C@@H](N)CCCNC(=N)N)CSSC[C@@H](C(=O)O)NC(=O)[C@H]([C@@H](C)O)NC(=O)CNC(=O)[C@@H]2CSSC[C@@H]3NC(=O)[C@H](CCC(N)=O)NC(=O)[C@H](Cc4ccccc4)NC(=O)[C@H](C)NC(=O)[C@H]([C@@H](C)O)NC(=O)[C@H](CSSC[C@H](NC(=O)[C@H](Cc4ccccc4)NC(=O)[C@H](CO)NC(=O)[C@H](CC(C)C)NC(=O)[C@H](CCCNC(=N)N)NC(=O)[C@H](Cc4ccc(O)cc4)NC(=O)[C@H](CCCCN)NC(=O)[C@H](CCSC)NC(=O)[C@H](CO)NC(=O)[C@H](Cc4c[nH]cn4)NC(=O)[C@H](CCCCN)NC3=O)C(=O)N[C@@H](CCCNC(=N)N)C(=O)N[C@@H](CCCCN)C(=O)N[C@@H]([C@@H](C)O)C(=O)N2)NC(=O)[C@H](CCCCN)NC(=O)[C@H](CO)NC(=O)[C@H](CCCCN)NC(=O)[C@@H]2CCCN2C(=O)[C@H]([C@@H](C)CC)NC(=O)[C@H]([C@@H](C)O)NC(=O)[C@H](CC(=O)O)NC1=O [[Lys11]ShK]
IC50 (hKv1.3): 0.137 nM
IC50 [1]: 0.252 nM

CC[C@H](C)[C@@H]1NC(=O)[C@@H](NC(=O)[C@H](CO)NC(=O)[C@@H](N)CCCNC(=N)N)CSSC[C@@H](C(N)=O)NC(=O)[C@H]([C@@H](C)O)NC(=O)CNC(=O)[C@@H]2CSSC[C@@H]3NC(=O)[C@H](CCCCN)NC(=O)[C@H](Cc4ccccc4)NC(=O)[C@H](C)NC(=O)[C@H]([C@@H](C)O)NC(=O)[C@H](CSSC[C@H](NC(=O)[C@H](Cc4ccccc4)NC(=O)[C@H](CO)NC(=O)[C@H](CC(C)C)NC(=O)[C@H](CCCNC(=N)N)NC(=O)[C@H](Cc4ccc(O)cc4)NC(=O)[C@H](CCCCN)NC(=O)[C@H](CCSC)NC(=O)[C@H](CO)NC(=O)[C@H](Cc4c[nH]cn4)NC(=O)[C@H](CCCCN)NC3=O)C(=O)N[C@@H](CCCNC(=N)N)C(=O)N[C@@H](CCCCN)C(=O)N[C@@H]([C@@H](C)O)C(=O)N2)NC(=O)[C@H](CCCNC(=N)N)NC(=O)[C@H](CO)NC(=O)[C@H](CCCCN)NC(=O)[C@@H]2CCCN2C(=O)[C@H]([C@@H](C)CC)NC(=O)[C@H]([C@@H](C)O)NC(=O)[C@H](CC(=O)O)NC1=O [[Lys16]ShK-amide]
IC50 (hKv1.3): 0.2 nM and 0.174 nM
IC50 [2]: 0.223 nM
IC50 [1]: 0.278 nM

CC[C@H](C)[C@@H]1NC(=O)[C@@H](NC(=O)[C@H](CO)NC(=O)[C@@H](N)CCCNC(=N)N)CSSC[C@@H](C(=O)O)NC(=O)[C@H]([C@@H](C)O)NC(=O)[C@H](CCCCN)NC(=O)[C@@H]2CSSC[C@@H]3NC(=O)[C@H](CCC(N)=O)NC(=O)[C@H](Cc4ccccc4)NC(=O)[C@H](C)NC(=O)[C@H]([C@@H](C)O)NC(=O)[C@H](CSSC[C@H](NC(=O)[C@H](Cc4ccccc4)NC(=O)[C@H](CO)NC(=O)[C@H](CC(C)C)NC(=O)[C@H](CCCNC(=N)N)NC(=O)[C@H](Cc4ccc(O)cc4)NC(=O)[C@H](CCCCN)NC(=O)[C@H](CCSC)NC(=O)[C@H](CO)NC(=O)[C@H](Cc4c[nH]cn4)NC(=O)[C@H](CCCCN)NC3=O)C(=O)N[C@@H](CCCNC(=N)N)C(=O)N[C@@H](CCCCN)C(=O)N[C@@H]([C@@H](C)O)C(=O)N2)NC(=O)[C@H](CCCNC(=N)N)NC(=O)[C@H](CO)NC(=O)[C@H](CCCCN)NC(=O)[C@@H]2CCCN2C(=O)[C@H]([C@@H](C)CC)NC(=O)[C@H]([C@@H](C)O)NC(=O)[C@H](CC(=O)O)NC1=O [[Lys33]ShK]
IC50 (hKv1.3): 0.122 nM
IC50 [2]: 0.218 nM

CCCC[C@@H]1NC(=O)[C@H](CO)NC(=O)[C@H](Cc2cnc[nH]2)NC(=O)[C@H](CCCCN)NC(=O)[C@@H]2CSSC[C@@H]3NC(=O)[C@H]([C@@H](C)O)NC(=O)[C@H](CCCCN)NC(=O)[C@H](CCCNC(=N)N)NC(=O)[C@H](CSSC[C@H](NC(=O)[C@H](CCCNC(=N)N)NC(=O)[C@H](CO)NC(=O)[C@H](CCCCN)NC(=O)[C@@H]4CCCN4C(=O)[C@H]([C@@H](C)CC)NC(=O)[C@H]([C@@H](C)O)NC(=O)[C@H](CC(=O)O)NC(=O)[C@H]([C@@H](C)CC)NC(=O)[C@@H](NC(=O)[C@H](CO)NC(=O)[C@@H](N)CCCNC(=N)N)CSSC[C@@H](C(=O)O)NC(=O)[C@H]([C@@H](C)O)NC(=O)CNC3=O)C(=O)N[C@@H]([C@@H](C)O)C(=O)N[C@@H](C)C(=O)N[C@@H](Cc3ccccc3)C(=O)N[C@@H](CCC(N)=O)C(=O)N2)NC(=O)[C@H](Cc2ccccc2)NC(=O)[C@H](CO)NC(=O)[C@H](CC(C)C)NC(=O)[C@H](CCCNC(=N)N)NC(=O)[C@H](Cc2ccc(O)cc2)NC(=O)[C@H](CCCCN)NC1=O [[N1e21]ShK]
IC50 (hKv1.3): 0.04 nM

CC[C@H](C)[C@@H]1NC(=O)[C@@H](NC(=O)[C@H](CO)NC(=O)[C@@H](N)CCCNC(=N)N)CSSC[C@@H](C(=O)O)NC(=O)[C@H]([C@@H](C)O)NC(=O)CNC(=O)[C@@H]2CSSC[C@@H]3NC(=O)[C@H](CCCN)NC(=O)[C@H](Cc4ccccc4)NC(=O)[C@H](C)NC(=O)[C@H]([C@@H](C)O)NC(=O)[C@H](CSSC[C@H](NC(=O)[C@H](Cc4ccccc4)NC(=O)[C@H](CO)NC(=O)[C@H](CC(C)C)NC(=O)[C@H](CCCNC(=N)N)NC(=O)[C@H](Cc4ccc(O)cc4)NC(=O)[C@H](CCCCN)NC(=O)[C@H](CCSC)NC(=O)[C@H](CO)NC(=O)[C@H](Cc4cnc[nH]4)NC(=O)[C@H](CCCCN)NC3=O)C(=O)N[C@@H](CCCNC(=N)N)C(=O)N[C@@H](CCCCN)C(=O)N[C@@H]([C@@H](C)O)C(=O)N2)NC(=O)[C@H](CCCNC(=N)N)NC(=O)[C@H](CO)NC(=O)[C@H](CCCCN)NC(=O)[C@@H]2CCCN2C(=O)[C@H]([C@@H](C)CC)NC(=O)[C@H]([C@@H](C)O)NC(=O)[C@H](CC(=O)O)NC1=O [[Orn16]ShK]
IC50 (hKv1.3): 0.14 nM

Source: US20120121591A1 (priority 2009, published 2012)
